# According to PubChem BioAssay AID493130 (Broad Institute, 2011):
# This is a selection; strong and weak results do not stand in their true shares. Inconclusive results are not listed. Activity calls are given as the source filed them.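 Rule for the calls: active = signal-lowering compounds whose fitted half-maximal concentration is at most ten times their highest tested dose; inconclusive = flat fit between -30 and -70%, or poor fit; inactive = flat within 30%, signal rising, or potency beyond limit.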
# Molecular target: POS-1 (Caenorhabditis elegans) binding to mex-3 RNA
# Experiment: C. elegans POS-1 RNA interaction disruptors – biochemical, fluorescence polarization, cherry-picked samples, set 2, counter-screen for MEX-5 RNA-binding inhibitor project, dose response (AID 493130);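 note: POS-1 as maltose binding protein fusion made in E. coli with FITC RNA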
# Details: POS-1/mex-3 RNA fluorescence polarization, 1 h; at 10 µM (top of the series)
compound,measurement,value
Nc1cccc2c([As](=O)(O)O)cccc12,"activity change, negative = inhibition",inactive
